The target of this test is T1, α-1A adrenoceptor (dog prostate) (Canis lupus, UniProt A0A8I3NK63).
T1 sequence (A0A8I3NK63 1-466): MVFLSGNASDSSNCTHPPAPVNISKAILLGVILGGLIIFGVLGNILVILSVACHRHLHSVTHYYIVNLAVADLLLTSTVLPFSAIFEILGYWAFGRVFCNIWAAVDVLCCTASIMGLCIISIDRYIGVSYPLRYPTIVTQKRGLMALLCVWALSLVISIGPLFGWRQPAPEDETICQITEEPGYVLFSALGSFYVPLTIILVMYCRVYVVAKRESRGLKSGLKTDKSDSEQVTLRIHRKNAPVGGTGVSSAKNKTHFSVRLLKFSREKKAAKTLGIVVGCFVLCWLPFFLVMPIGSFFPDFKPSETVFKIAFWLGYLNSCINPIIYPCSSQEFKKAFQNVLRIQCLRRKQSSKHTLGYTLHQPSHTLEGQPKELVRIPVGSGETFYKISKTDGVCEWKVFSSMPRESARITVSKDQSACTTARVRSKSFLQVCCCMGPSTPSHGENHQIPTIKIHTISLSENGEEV
As to the kind of experiment: Functional antagonism: phenylephrine (PE)-induced contraction of canine prostate strips. The note with it: Table 2a; vs phenylephrine; Schild plot.

Turning to `COc1cc2nc(N3CCN(C(=O)c4ccco4)CC3)nc(N)c2cc1OC` [prazosin, reference compound], the “pA2 Dog Prostate [α-1A]” value came out at 7.59.

(Values after patent publication US5597823A, “Tricyclic substituted hexahydrobenz [e]isoindole alpha-1 adrenergic antagonists” (priority 1995, dated 1997).)
